The record followed here is patent publication US11629179B2, “TWEAK-receptor agonists for use in combination with immunotherapy of a cancer” (Stichting Het Nederlands Kanker Instituut - Antoni van …, priority 2018, dated 2023).

Entries after “also recorded” stand apart in the source; their conditions may differ.

The experiment deals with melanoma cells. Briefly: TNF dose-titration on sgCtrl or sgTRAF2 melanoma cells. The class given is cell-based, human. On the procedure:
1.2×10^5 tumor cells were seeded per well in 12-well culture plates (Greiner). CD8 T cells were admixed in serial dilutions (two-fold, starting at a 1:1 ratio). After 24 hours, T cells were washed away. After a further 4 days, plates were fixed and stained for 1 hour using a crystal violet solution containing 0.1% crystal violet (Sigma) and 50% methanol (Honeywell). For quantification, remaining crystal violet was solubilized in 10% acetic acid (Sigma). Absorbance of this solution was measured on an Infinite 200 Pro spectrophotometer (Tecan) at 595 nm. In select experiments, tumor viability data was assessed with CellTiter-Blue (Promega) following manufacturer's instructions. In indicated experiments, 1 uM of birinapant (Selleck Chemicals) in DMSO (Sigma) was added during co-cultures. For Incucyte (Incucyte Zoom, Essen Bioscience) experiments, 5×10^3 tumor cells were seeded per well in 96-well culture plates (Greiner). CD8 T cells were admixed in indicated ratios and a Caspase-3/7 dye (Essen Bioscience) was added. Growth of these co-cultures was followed for 48 hours. In indicated experiments a neutralizing TNF antibody or isotype control (R&D Systems, AF375 and Cell Signaling Technology, 7321 and 3900 respectively) was added at a concentration of 1 μg per ml. […]

Consider TNF: recombinant TNF (Peprotech), for which the “tumor cell death upon TNF treatment” value is given as “tumor cells died at picogram TNF concentrations” (TRAF2-inactivated (sgTRAF2) cells (FIG. 2C)) and “even high concentrations of TNF were unable to cause control tumor cells to die; also recorded: hardly displayed any sensitivity to TNF” (control (wildtype, sgCtrl) cells (FIG. 2C)).
